Literature values, collected in US6579853B2, “Brain cell or nerve cell-protective agents comprising ginsenoside Rb1” (Japan Science and Technology Corporation, priority 1998, dated 2003).

Test system: Bcl-xL protein
Details: interleukin 3 0.6-15.0 ng/ml; cited from earlier work

B1: interleukin 3 (protein, UniProt P08700 20-152, looked up)
Interleukin-3: APMTQTTPLKTSWVNCSNMIDEIITHLKQPPLPLLDFNNLNGEDQDILMENNLRRPNLEAFNRAVKSLQNASAIESILKNLLPCLPLATAAPTRHPIHIKDGDWNEFRRKLTFYLKTLENAQAQQTTLSLAIF
notes: peptide factor reported to facilitate the expression of Bcl-xL protein in nerve cells
  increase of the expression of Bcl-xL protein: about 10%
